The text below walks through data of ChEMBL document CHEMBL5506047, “Impact of Combinatorial Histone Modifications on Acetyllysine Recognition by the ATAD2 and ATAD2B Bromodomains” (J Med Chem, 2024).

The assay deals with T1, ATPase family AAA domain-containing protein 2 (Homo sapiens, UniProt Q6PL18).
T1 sequence (Q6PL18 whole entry): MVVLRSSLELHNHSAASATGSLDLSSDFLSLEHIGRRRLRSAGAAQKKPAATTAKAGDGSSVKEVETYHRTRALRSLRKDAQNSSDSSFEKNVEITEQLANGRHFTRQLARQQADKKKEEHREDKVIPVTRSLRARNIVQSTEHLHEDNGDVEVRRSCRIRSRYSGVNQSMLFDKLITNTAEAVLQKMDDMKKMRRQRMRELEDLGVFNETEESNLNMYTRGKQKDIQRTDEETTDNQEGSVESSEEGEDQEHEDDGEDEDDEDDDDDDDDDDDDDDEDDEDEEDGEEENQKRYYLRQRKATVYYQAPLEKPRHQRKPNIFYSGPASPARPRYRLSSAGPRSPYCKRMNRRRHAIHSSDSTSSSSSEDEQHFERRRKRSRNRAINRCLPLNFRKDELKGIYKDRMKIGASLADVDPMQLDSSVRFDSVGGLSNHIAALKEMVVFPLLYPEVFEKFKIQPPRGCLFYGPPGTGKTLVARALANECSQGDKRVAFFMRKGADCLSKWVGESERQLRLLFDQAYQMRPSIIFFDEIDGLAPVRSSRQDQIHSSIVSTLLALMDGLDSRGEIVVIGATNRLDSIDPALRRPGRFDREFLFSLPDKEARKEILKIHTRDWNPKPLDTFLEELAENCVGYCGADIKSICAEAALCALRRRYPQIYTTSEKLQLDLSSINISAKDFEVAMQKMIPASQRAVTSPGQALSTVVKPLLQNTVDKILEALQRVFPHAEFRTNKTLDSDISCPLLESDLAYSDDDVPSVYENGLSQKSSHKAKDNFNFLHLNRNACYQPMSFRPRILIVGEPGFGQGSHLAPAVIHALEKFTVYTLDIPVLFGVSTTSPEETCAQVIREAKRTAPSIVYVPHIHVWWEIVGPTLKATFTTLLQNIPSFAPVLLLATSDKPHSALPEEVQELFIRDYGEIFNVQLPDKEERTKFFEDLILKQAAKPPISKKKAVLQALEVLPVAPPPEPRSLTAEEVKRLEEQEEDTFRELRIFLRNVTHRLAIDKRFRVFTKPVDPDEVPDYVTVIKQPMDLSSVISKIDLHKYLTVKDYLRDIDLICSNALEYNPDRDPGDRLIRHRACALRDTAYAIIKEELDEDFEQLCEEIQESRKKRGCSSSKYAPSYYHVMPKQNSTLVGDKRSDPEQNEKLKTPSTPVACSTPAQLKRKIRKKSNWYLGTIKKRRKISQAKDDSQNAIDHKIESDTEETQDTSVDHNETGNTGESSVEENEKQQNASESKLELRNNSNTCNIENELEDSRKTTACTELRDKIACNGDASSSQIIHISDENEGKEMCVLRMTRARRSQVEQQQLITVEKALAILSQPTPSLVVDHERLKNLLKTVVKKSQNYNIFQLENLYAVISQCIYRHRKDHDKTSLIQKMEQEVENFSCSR
Nature of the assay: Binding affinity to human ATAD2 BRD assessed as dissociation constant by isothermal titration calorimetry. (In general: In ITC the heat of successive injections is recorded.)

The structures appear in SMILES notation.

As to `CC(=O)NCCCC[C@H](NC(=O)CNC(=O)[C@H](CCCNC(=N)N)NC(=O)CNC(=O)[C@@H](N)CO)C(=O)N[C@H](C(=O)NCC(=O)NCC(=O)N[C@@H](CCCCN)C(=O)N[C@@H](C)C(=O)N[C@@H](CCCNC(=N)N)C(=O)N[C@@H](C)C(=O)N[C@@H](CCCCN)C(=O)N[C@@H](C)C(=O)N[C@@H](CCCCN)C(=O)N[C@@H](CO)C(=O)N[C@@H](CCCNC(=N)N)C(=O)O)[C@@H](C)O`, the Kd (in general, the constant that tells how readily two partners part at equilibrium) is 160 µM.
